# Apparent affinities of Ab-14 variants for a coronavirus HR2 peptide

Antigen: PDVDLGDISGINAS, a 14-residue peptide of the SARS-CoV-2 spike HR2 region.

The variants keep the light chain, the linker and the frameworks of Ab-14 (scFv order VH, a (GGGGS)3 linker, VL).
VH: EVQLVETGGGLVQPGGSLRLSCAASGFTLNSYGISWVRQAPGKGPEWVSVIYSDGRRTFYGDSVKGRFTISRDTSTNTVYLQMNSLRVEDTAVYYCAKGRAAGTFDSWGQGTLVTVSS
VL: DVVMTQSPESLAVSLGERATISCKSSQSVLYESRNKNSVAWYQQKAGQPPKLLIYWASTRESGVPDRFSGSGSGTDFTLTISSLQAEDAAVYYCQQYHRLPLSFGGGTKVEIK

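The parent was found by panning a naive human phage display library on the peptide. This is the validation round: designs drawn from the data on random variants, tested in the same kind of assay. Group labels follow the data file (En: ensemble of fine-tuned language models; HC: hill climbing; Gen: genetic algorithm; Gibbs: Gibbs sampling; a sequence that several methods proposed may carry one label only). Affinity was read by AlphaSeq, a pooled yeast mating assay with surface-displayed partners. The frequency of each diploid, read from paired DNA barcodes, reflects how well the two displayed proteins bind. A regression on co-assayed BCL2-family reference pairs converts the normalised counts of each replicate to an apparent Kd. There are six technical replicates.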

Each variant is given by its three heavy chain CDRs, as the data file delimits them; those of the parent are GFTLNSYGIS, VIYSDGRRTFYGDSVK, GRAAGTFDS.
Variants here have more than six changes.
Kd is apparent (estimated from mating counts) and averaged on the log scale over replicates with a signal. Smaller is tighter.
An entry "nd" has no value in the source: the pair was not observed among the diploids in any replicate. This suggests poor binding but is not conclusive.
Entries are sorted by rising average, undetected variants last.

* GFDLDEYGIS / VIYADGVRTAYTDSVK / GENAGTFDI [En_Gen]: 63 pM (6 of 6 replicates; controls 0 of 18)
* GFDLNEYGIS / VIYADGKRTAYIDSVK / GTNAGTFDV [En_Gen]: 100 pM (6 of 6 replicates; controls 1 of 18)
* GFDLNEYGIS / VIYADGQRTAYSDSVK / GNVAGTFDT [En_Gen]: 170 pM (6 of 6 replicates; controls 0 of 18)
* GFDLNEYGIS / VIYADGQRTAYADSVK / GTAAGTFDS [En_HC]: 180 pM (6 of 6 replicates; controls 0 of 18)
* GFDLNEYGIS / VIYADGMRTAYADSVK / GNTAGTFDM [En_Gen]: 180 pM (6 of 6 replicates; controls 0 of 18)
* GFDLNEYGIS / VIYADGKRTFYTDSVK / GANAGTFDS [En_HC]: 190 pM (6 of 6 replicates; controls 0 of 18)
* GFDLNEYGIS / VIYADGMRTAYTDSVK / GEQAGTFDV [En_Gen]: 200 pM (6 of 6 replicates; controls 0 of 18)
* GFNLNEYGIS / VIYADGRRKAYADSVK / GNTAGTFDV [En_HC]: 200 pM (6 of 6 replicates; controls 0 of 18)
* GFDLNEYGIS / VIYADGKRTAYVDNVK / GNVAGTFDV [En_Gen]: 250 pM (6 of 6 replicates; controls 0 of 18)
* GFSLDEYGIS / VIYADGRRTFYADSVK / GNLAGTFDS [En_HC]: 260 pM (6 of 6 replicates; controls 1 of 18)
* GFDLDEYGIS / VIYADGQRTAYSDSVK / GNNAGTFDV [En_Gen]: 280 pM (6 of 6 replicates; controls 0 of 18)
* GFDLEEYGIS / VIYADGRRTAYSDSVK / GEAAGTFDS [En_HC]: 320 pM (6 of 6 replicates; controls 0 of 18)
* GFDLNEYGIS / VIYADGSRTFYTDSVK / GEVAGTFDS [En_HC]: 340 pM (6 of 6 replicates; controls 0 of 18)
* GFDLNEYGIS / VIYADGMRTFYADSVK / GNNAGTFDS [En_HC]: 350 pM (6 of 6 replicates; controls 2 of 18)
* GFDLNEYGIS / VIYADGMRTAYTDSVK / GQVAGTFDI [En_Gen]: 390 pM (6 of 6 replicates; controls 0 of 18)
* GFDLDEYGIS / VIYADGKRTFYADSVK / GEAAGTFDI [En_HC]: 520 pM (6 of 6 replicates; controls 0 of 18)
* GFDLNEYGIS / VIYADGQRTAYADSVK / GENAGTFDI [En_Gen]: 790 pM (6 of 6 replicates; controls 0 of 18)
* GFDLDEYGIS / VIYADGQRTFYADSVK / GEAAGTFDV [En_HC]: 810 pM (6 of 6 replicates; controls 0 of 18)
* GFDLNEYGIS / VIYADGMRTAYANSVK / GEVAGTFDV [En_Gen]: 950 pM (6 of 6 replicates; controls 0 of 18)
* GFDLDEYGIS / VIYADGRRTFYKDSVK / GSNAGTFDV [En_HC]: 1.0 nM (6 of 6 replicates; controls 0 of 18)
* GFDLDEYGIS / VIYADGMRTFYADSVK / GNNAGTFDL [En_Gen]: 1.2 nM (6 of 6 replicates; controls 0 of 18)
* GFDLNEYGIS / VIYADGRRTQYIDSVK / GNQAGTFDQ [En_HC]: 1.3 nM (6 of 6 replicates; controls 0 of 18)
* GFDLQEYGIS / VIYADGVRYAYQNSVK / GQIAGTFNS [En_Gibbs]: 1.7 nM (6 of 6 replicates; controls 1 of 18)
* GFDLDEYGIS / VIYADGRRTFYADSVK / GEAAGTFTI [En_HC]: 2.7 nM (6 of 6 replicates; controls 0 of 18)
* GFDLNEYGIS / VIYADGMRTAYADNVK / GGNAGTFDI [En_Gen]: 3.1 nM (6 of 6 replicates; controls 0 of 18)
* GFDLDEYGIS / VIYADGMRTAYADNVK / GNNAGTFDV [En_Gen]: 4.7 nM (6 of 6 replicates; controls 0 of 18)
* GFDLDEYGIS / VIYADGMRTAYADSVK / GNVAGTFVL [En_Gen]: 6.0 nM (6 of 6 replicates; controls 1 of 18)
* GFDIDEMGIS / VIYADGVRQAYKNNVK / GKNVGLSAL [En_Gibbs]: 17 nM (6 of 6 replicates; controls 1 of 18)
* DFNLNEYGIS / VIYADGQRASYDDKVK / GQIGGTFDD [En_Gibbs]: 390 nM (1 of 6 replicates; controls 0 of 18)
* GFDLEEYGIS / VIYADGLRQYAQDNVK / GLISGMGKT [En_Gibbs]: 520 nM (1 of 6 replicates; controls 0 of 18)
* GFDLDEYGIS / VIYADGRRVVYQDQVK / GELAGTVDQ [En_Gibbs]: 8.1 µM (1 of 6 replicates; controls 0 of 18)
* GFDLNEYGIS / VIYADGRRTSYKDSVK / GENAGTFNV [En_HC]: nd (0 of 6 replicates; controls 0 of 18)
* GEDLEEYGIS / VIYADGMRQYYANSVK / GTSNDFDDL [En_Gibbs]: nd (0 of 6 replicates; controls 0 of 18)
* GFDLEDYGIS / VIYADGVRTAYSDNSK / GENGGALYT [En_Gibbs]: nd (0 of 6 replicates; controls 0 of 18)
* GFDINEYGIS / VIYADGMRRAYAQQVK / GHGEVVSMD [En_Gibbs]: nd (0 of 6 replicates; controls 2 of 18)
* GQSLSEYGIS / VIYADGVRRSYAESVK / GNTSGNFSS [En_Gibbs]: nd (0 of 6 replicates; controls 0 of 18)
* GFSLDEYGIS / VIYADGRRTFYQDDVK / GNVAGTFDV [En_HC]: nd (0 of 6 replicates; controls 0 of 18)
* GNDLNEYGIS / VIYADGSRTSYQEKVK / GLVGGMLIV [En_Gibbs]: nd (0 of 6 replicates; controls 0 of 18)
* GFNLQEYGIS / VIYADGHRTAYTNKVK / GGESMISVT [En_Gibbs]: nd (0 of 6 replicates; controls 0 of 18)
* GSKLDEYGIS / VIYADGKRSFYSNNVK / GGKAGGTTV [En_Gibbs]: nd (0 of 6 replicates; controls 1 of 18)
* GFDLNEYGIS / VIYADGVRTAYTDSVK / GANAGTFDQ [En_HC]: nd (0 of 6 replicates; controls 0 of 18)
* GFGLDEYGIS / VIYADGRRTFYADSVK / GENAGTFIM [En_HC]: nd (0 of 6 replicates; controls 0 of 18)
* GFNLDEYGIS / VIYADGIRAAYKDKVK / GDDILLGWD [En_Gibbs]: nd (0 of 6 replicates; controls 0 of 18)
* GFQLDEVGIS / VIYADGIRRAYKSKVK / GGNGGSFDI [En_Gibbs]: nd (0 of 6 replicates; controls 0 of 18)
* GFDLNEYGIS / VIYADGKRTAYSDSVK / GGNAGFFDS [En_HC]: nd (0 of 6 replicates; controls 0 of 18)

Nonspecific signal, from three strains lacking the peptide, appeared in 1% of pairings of all heavy chain designs, centred on 120 nM (5% of these signals below 7.0 nM); values are not corrected for it. The control count says in how many pairings with the empty strains this scFv gave a signal.
The parent sequence was in this pool as ten entries: three were never detected, three once, and four in most replicates, with averages from 2.2 nM to 240 nM.
The authors averaged sequences with at least three values out of six and counted those with two or fewer as poor binders.
Values of this round are not directly comparable with the first-round values of the same sequences.

From the AlphaSeq antibody data of Li et al. 2023 (doi:10.1038/s41467-023-39022-2), copy in the FLAb collection.